Measured values reported in patent publication US8981092B2, “Substituted 3,4-dihydro-2H-pyrrolo[1,2-a]pyrazin-1-ones as modulators of protein kinase activity” (Nerviano Medical Sciences S.r.l., priority 2008, dated 2015).

By UniProt entry, the sequences of proteins in these tests, tags left out.
UniProt P11309, whole entry: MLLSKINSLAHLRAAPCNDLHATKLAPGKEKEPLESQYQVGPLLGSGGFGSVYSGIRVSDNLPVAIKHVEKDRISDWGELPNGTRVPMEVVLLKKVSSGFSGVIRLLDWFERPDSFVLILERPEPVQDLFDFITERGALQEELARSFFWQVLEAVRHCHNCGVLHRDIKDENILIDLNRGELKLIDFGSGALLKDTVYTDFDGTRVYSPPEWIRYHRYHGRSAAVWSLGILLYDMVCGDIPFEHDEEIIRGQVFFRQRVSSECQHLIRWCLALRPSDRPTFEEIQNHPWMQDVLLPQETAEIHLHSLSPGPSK

Each compound was assayed against Full-length human PIM-1 (Homo sapiens, UniProt P11309).

SMILES	IC50 [nM]
O=C(C[C@@H]1CNC(=O)c2cc(-c3cccc(F)c3)cn21)N[C@H](CO)C1CCCCC1	380
O=C(CC1CNC(=O)c2cc(-c3cccc(OC(F)(F)F)c3)cn21)NC1CCOCC1 (centres unmarked)	360
Cc1cccc(-c2cc3n(c2)C(CC(=O)NCc2ccccc2)CNC3=O)c1 (centres unmarked)	400
O=C(CC1CNC(=O)c2cc(-c3cccc(C(F)(F)F)c3)cn21)NC1CCOCC1 (centres unmarked)	840
O=C(C[C@@H]1CNC(=O)c2cc(-c3cccc(F)c3)cn21)N[C@H](CO)c1ccccc1	1840
Cc1cccc(-c2cc3n(c2)C(CC(=O)NCc2ccncc2)CNC3=O)c1 (centres unmarked)	920
COC(=O)c1cccc(-c2cc3n(c2)C(CC(=O)NC2CCOCC2)CNC3=O)c1 (centres unmarked)	3720
CSc1cccc(-c2cc3n(c2)C(CC(=O)NCc2cccc(F)c2)CNC3=O)c1 (centres unmarked)	490
O=C(CC1CNC(=O)c2cc(-c3ccc(F)cc3)cn21)NCc1cccc(F)c1 (centres unmarked)	120
Cc1ccc(CNC(=O)CC2CNC(=O)c3cc(-c4cccc(F)c4)cn32)o1 (centres unmarked)	520
O=C(CC1CNC(=O)c2cc(-c3cccc(F)c3)cn21)NCc1ccco1 (centres unmarked)	230
O=C(C[C@H]1CNC(=O)c2cc(-c3cccc(C(F)(F)F)c3)cn21)N[C@H](CO)Cc1ccccc1	560
O=C(C[C@H]1CNC(=O)c2cc(-c3cccc(F)c3)cn21)N[C@H](CO)Cc1ccccc1	140
O=C(CC1CNC(=O)c2cc(-c3ccc(F)cc3)cn21)NCc1ccccc1 (centres unmarked)	280
